From patent US11903945B2, “Methods of treating antipsychotic-induced weight gain with miricorilant” (Corcept Therapeutics Incorporated, priority 2019, dated 2024)
Read-outs that look alike come from different tables or passages of the source.

Experiments:
[1] = female rats; for Group mean body weight at Day 34: vehicle-only Group 1: 270 g
Procedure: On day 35, the rodents were randomized to 4 different interventions and remained on study until day 57. The four intervention groups were: OLZ+vehicle daily by oral gavage; OLZ+2 mg/kg/day miricorilant once daily; OLZ+1 mg/kg miricorilant twice daily; and OLZ+10 mg/kg/day miricorilant once daily. A fifth group, a vehicle-only group (n=12), was included as a control for the entirety of the 57 days.
Starting at week 6, either miricorilant (MIRI, 3 dosing regimens) or vehicle 2 was administered orally. […] The vehicle-only group was included as a control for the 8-week duration of the study. Efficacy was assessed based on body weight, food consumption, mortality, and clinical observations.
The articles were stored refrigerated between dosing.
Body weights were measured and recorded three times weekly during the acclimation period, every other day beginning on Day −1, and prior to termination on Day 57. Food consumption was measured and recorded daily beginning on Day −14. Body weights and food consumption were measured within 2 hours of the initial time on Day −1. Any changes in bodyweight greater than 15 grams (g) and changes in food consumption greater than 5 g were verified. Food jars were weighed twice for precision during food jar changes.

[2] = Procedure: The dose level tested in our Phase 1b trial was 600 mg/day.
A 2-week, single-center, double-blind, randomized, placebo-controlled study was conducted in healthy male subjects age 18-55 years with BMI between 18-25 kg/m^2 and a stable body weight (defined as the Day 1 pre-dose body weight to be within ±2.0% of screening body weight). […] Food was freely available to all subjects during the study. The difference in mean change in absolute body weight after administration of OLZ+PBO compared to OLZ+MIRI was evaluated using a repeated measures model with imputation applied to missing values.
(HOMA2-IR values were calculated from fasted glucose and insulin levels using the HOMA (HOMA2 Model) Calculator® application programming interface for SAS (Oxford University 2013, available at the website www.dtu.ox.ac.uk/homacalculator)).

[3] = patients, cited from earlier work; for Mean body weight increase over a period of ten weeks: Allison et al., Am J. Psychiatry 1999
[4] = adults treated with olanzapine; prescribing information; cited from earlier work

| Compound | Group mean body weight at Day 34 ([1]; Group 2, olanzapine 2.4 mg/kg/day oral (BID) Days 1-34) | Group mean body weight at Day 34 ([1]; Group 3, olanzapine 2.4 mg/kg/day oral (BID) Days 1-34, before miricorilant) | Group mean body weight at Day 34 ([1]; Group 4, olanzapine 2.4 mg/kg/day oral (BID) Days 1-34, before miricorilant) | Group mean body weight at Day 34 ([1]; Group 5, olanzapine 2.4 mg/kg/day oral (BID) Days 1-34, before miricorilant) | Body weight gains attributed to Olanzapine at Day 34 ([1]; Groups 2 to 5 vs vehicle-only control Group 1 (270 g)) | Group mean body weight at Day 57 ([1]; olanzapine control Group 2 (OLZ + vehicle 2)) | Mean increase in food consumption across the groups treated with olanzapine ([1]; weight-induction phase (weeks 1-5)) | Mean body weight of olanzapine treated groups by day 34 ([1]; vs 270 g vehicle only control, p<0.05) | Insulin resistance (HOMA2-IR) increase from baseline, percent ([2]; healthy male subjects, day not given, listed as miricorilant = olanzapine+miricorilant, listed as olanzapine = olanzapine+placebo) | ALT increase from baseline, percent, day 7 ([2]; human, in vivo) | ALT increase from baseline, percent, day 12 ([2]; human, in vivo) | AST increase from baseline, percent, day 7 ([2]; human, in vivo) | AST increase from baseline, percent, day 12 ([2]; human, in vivo) | Average weight gain in a year ([3]; Allison et al. 2001) | Mean body weight increase over a period of ten weeks [3] | Triglyceride level increase after 12 weeks [4] | Triglyceride level increase over 48 weeks [4] | Weight gained after 10 weeks of treatment ([3]; Allison et al. 2001) |
| --- | --- | --- | --- | --- | --- | --- | --- | --- | --- | --- | --- | --- | --- | --- | --- | --- | --- | --- |
| Cc1cc2c(s1)Nc1ccccc1N=C2N1CCN(C)CC1 [olanzapine, reference compound] | 298 g | 296 g | 292 g | 292 g | 8 to 10% | 309 g | 13% | 294.5 g | 150% | 225% | 724% | 137% | 338% | about 12 kg | 4.15 kg | 20.8 mg/dL | 18.7 mg/dL |  |
| Cc1nc2n(c(=O)c1CCN1CCC(c3noc4cc(F)ccc34)CC1)CCCC2 [risperidone] |  |  |  |  |  |  |  |  |  |  |  |  |  |  | 2.10 kg |  |  | about 2.5 kg |
